This passage reports IC50 and Ki results from patent US9340500B2, “Aromatic heterocyclic derivative having TRPV4-inhibiting activity” (SHIONOGI & CO., LTD., priority 2011, dated 2016).

Chains of the proteins cited; added tags and fusions are not shown.
UniProt Q9HBA0, whole entry: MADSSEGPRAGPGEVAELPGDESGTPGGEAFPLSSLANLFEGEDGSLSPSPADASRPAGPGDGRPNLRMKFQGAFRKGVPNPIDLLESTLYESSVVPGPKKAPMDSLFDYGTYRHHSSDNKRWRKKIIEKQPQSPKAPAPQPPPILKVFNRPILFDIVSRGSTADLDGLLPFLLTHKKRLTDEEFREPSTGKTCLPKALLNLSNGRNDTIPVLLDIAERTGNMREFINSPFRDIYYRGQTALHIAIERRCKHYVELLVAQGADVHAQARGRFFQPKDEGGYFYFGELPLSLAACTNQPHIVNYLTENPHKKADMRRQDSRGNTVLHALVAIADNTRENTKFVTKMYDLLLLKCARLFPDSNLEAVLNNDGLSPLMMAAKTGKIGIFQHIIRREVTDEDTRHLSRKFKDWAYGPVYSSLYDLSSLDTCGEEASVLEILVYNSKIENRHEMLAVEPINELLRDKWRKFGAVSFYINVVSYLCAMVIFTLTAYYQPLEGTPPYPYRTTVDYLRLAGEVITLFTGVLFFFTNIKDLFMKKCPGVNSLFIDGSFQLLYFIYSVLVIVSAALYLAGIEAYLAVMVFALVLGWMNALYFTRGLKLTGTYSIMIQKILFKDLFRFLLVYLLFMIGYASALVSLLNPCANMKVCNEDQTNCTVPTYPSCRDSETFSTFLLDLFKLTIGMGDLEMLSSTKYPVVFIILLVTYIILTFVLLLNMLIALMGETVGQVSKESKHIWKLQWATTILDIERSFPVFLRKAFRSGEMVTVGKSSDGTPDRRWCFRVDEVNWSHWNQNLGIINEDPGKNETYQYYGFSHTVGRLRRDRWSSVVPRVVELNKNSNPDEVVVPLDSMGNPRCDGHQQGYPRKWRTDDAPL

The assay addresses human TRPV4 (Homo sapiens (Human), UniProt Q9HBA0). The experiment in a line: Test Example 1: measurement of TRPV4 inhibitory activity (Fluo 4-AM, FLIPR TETRA, 4α-PDD 1 μmol/L). The note with it: hTRPV4/CHO cells. As for the experimental part:
For each compound, TRPV4 inhibitory activity was measured using cells.
(1) The TRPV4 inhibitory activity was measured using CHO-K1 cells stably expressing human TRPV4 (hTRPV4/CHO cells).
(2) In the day before the experimental day, frozen cell were thawed and washed with the culture medium (MEM-α, 10% FBS, 2 mmol/L GlutaMax, 50 unit Penicillin, 50 μg/mL Streptomycin). Then cells were suspended in the culture medium.
(3) The 384-well plates which hTRPV4/CHO cells were seeded at densities of 4000 cells/well in the culture medium and cultured in a CO2 incubator in the presence of 5% CO2 at 37° C. for overnight was used as assay plates. […]
(7) Diluted compound solution was dispensed to each well in the compound plate, and mixed with built-in Pipette and Mixer of the Fluorescence analysis system FLIPR TETRA (Molecular devices). […]
(9) The fluorescent intensity was measured with FLIPR TETRA system for 10 min from the point of time addition the compound solution, at Ex 470-495 nm, Em 515-575 nm wavelength.
TRPV4 inhibitory activity (IC50 value and Ki value) of a compound was evaluated according to the following procedure.
(10) In the presence of the compound, the difference between maximal and minimal of fluorescent intensity value for 5 min from just before addition of 4α-PDD solution was calculated, and it was referred as Max-Min value. […]

With `FC(F)(F)c1cccc(Nc2ccc3c(c2)cc(-c2ccccc2)n3CCCN2CCOCC2)c1`, the IC50 (read-out: Test 1 IC50, 4α-PDD 1 μmol/L) was found to be 8 µM. Moreover, under “read-out: Test 1 Ki, calculated from IC50 and 4α-PDD EC50”, the inhibition constant (Ki) was 3.9 µM.

For orientation: IC50 means the point on the concentration scale where inhibition reaches its midpoint. One may read the Ki as the dissociation constant of the complex between target and ligand, obtained from inhibition or displacement.
